Results taken from patent US8937193B2, “Apogossypolone derivatives as anticancer agents” (Sanford-Burnham Medical Research Institute, priority 2009, dated 2015).

Protein sequences, listed by entry. Tags and fused reporters are not part of them.
UniProt Q07817, whole entry: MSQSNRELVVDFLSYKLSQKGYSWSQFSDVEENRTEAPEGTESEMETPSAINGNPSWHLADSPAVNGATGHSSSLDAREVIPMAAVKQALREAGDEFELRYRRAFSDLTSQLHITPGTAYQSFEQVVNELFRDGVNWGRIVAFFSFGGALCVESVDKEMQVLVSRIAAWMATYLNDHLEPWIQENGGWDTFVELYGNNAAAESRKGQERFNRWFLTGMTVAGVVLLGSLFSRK

What was measured:
[1] = tested on: B6-Bcl-2 transgenic mice (spleen weight); assay: B6-Bcl-2 transgenic mice spleen weight study; conditions: single ip injection of 0.06 and 0.12 mmol/kg
BP3 cell line = assay: Annexin V-FITC and propidium iodide apoptosis assay, BP3; format: cell-based, human; conditions: read-out: EC50 BP3; Table 5
H1299 cell line = assay: ATP-LITE cell viability assay, H1299; format: cell-based, human; conditions: read-out: EC50 H1299; Table 5
RS4;11 cell line = assay: Annexin V-FITC and propidium iodide apoptosis assay, RS4;11; format: cell-based, human; conditions: read-out: EC50 RS4;11; Table 5
H460 cell line = assay: ATP-LITE cell viability assay, H460; format: cell-based, human; conditions: read-out: EC50 H460; Table 5
Bcl-XL = Bcl-XL (Homo sapiens (Human), UniProt Q07817); assay: Fluorescence polarization competitive binding assay (FPA), Bcl-XL; conditions: read-out: IC50 Bcl-XL; Table 6, FPA

Compound	toxicity [1]	EC50 (BP3 cell line) [µM]	EC50 (H1299 cell line) [µM]	EC50 (RS4;11 cell line) [µM]	EC50 (H460 cell line) [µM]	IC50 (Bcl-XL) [nM]
CC1=C(C2=C(C)C(=O)c3c(cc(O)c(O)c3CC(C)C)C2=O)C(=O)c2cc(O)c(O)c(CC(C)C)c2C1=O [Compound 6b, 6,6′,7,7′-tetrahydroxy-5,5′-diisobutyl-3,3′-dimethyl-2,2′-binaphthyl-1,1′,4,4′-tetraone]	did not show any toxicity	–	–	–	–	–
CC1=C(C2=C(C)C(=O)c3c(cc(O)c(O)c3CC3CCCC3)C2=O)C(=O)c2cc(O)c(O)c(CC3CCCC3)c2C1=O [Compound 6c, 5,5′-bis(cyclopentylmethyl)-6,6′,7,7′-tetrahydroxy-3,3′-dimethyl-2,2′-binaphthyl-1,1′,4,4′-tetraone]	–	12.4	2.3	10.1	0.7	–
CC1=C(C2=C(C)C(=O)c3c(cc(O)c(O)c3CCC3CCCCC3)C2=O)C(=O)c2cc(O)c(O)c(CCC3CCCCC3)c2C1=O [Compound 6d, 5,5′-bis(2-cyclohexylethyl)-6,6′,7,7′-tetrahydroxy-3,3′-dimethyl-2,2′-binaphthyl-1,1′,4,4′-tetraone]	did not show any toxicity	15.5	1.3	–	–	–
CC1=C(C2=C(C)C(=O)c3c(cc(O)c(O)c3C(=O)Cc3ccccc3)C2=O)C(=O)c2cc(O)c(O)c(C(=O)Cc3ccccc3)c2C1=O [Compound 7, 6,6′,7,7′-Tetrahydroxy-3,3′-dimethyl-5,5′-bis(2-phenylacetyl)-2,2′-binaphthyl-1,1′,4,4′-tetraone]	–	6.1	10	> 30	7.4	360
CC1=C(C2=C(C)C(=O)c3c(cc(O)c(O)c3C(=O)NCC(C)c3ccccc3)C2=O)C(=O)c2cc(O)c(O)c(C(=O)NCC(C)c3ccccc3)c2C1=O (stereo not shown) [Compound 8a, 6,6′,7,7′-Tetrahydroxy-3,3′-dimethyl-1,1′,4,4′-tetraoxo-N^5,N^5′-bis(2-phenylpropyl)-1,1′,4,4′-tetrahydro-2,2′-binaphthyl-5,5′-dicarboxamide]	–	–	30	> 30	–	–
CCc1ccc(CCNC(=O)c2c(O)c(O)cc3c2C(=O)C(C)=C(C2=C(C)C(=O)c4c(cc(O)c(O)c4C(=O)NCCc4ccc(CC)cc4)C2=O)C3=O)cc1 [Compound 8c, N^5,N^5′-Bis(4-ethylphenethyl)-6,6′,7,7′-tetrahydroxy-3,3′-dimethyl-1,1′,4,4′-tetraoxo-1,1′,4,4′-tetrahydro-2,2′-binaphthyl-5,5′-dicarboxamide]	–	–	–	> 30	–	–
